Test results: paper PMC6318248

Assays:
[1] = biological target: Synaptobrevin-2, soluble cytosolic variant Syb([…]) (Rattus norvegicus); assay: cross-linking; 200 μM Syb(1-96), 180-350 μM BS3, 1 h at 25 °C; Coomassie gel and western blot; cross-linked peptides by LC-MS/MS
[2] = biological target: Synaptobrevin-2, soluble cytosolic variant Syb([…]) (Rattus norvegicus); assay: native MS; Syb(1-96) at 10 μM, 200 mM ammonium acetate pH 7.0
[3] = biological target: Synaptobrevin-2, soluble cytosolic variant Syb([…]) (Rattus norvegicus); assay: native MS; Syb(1-96) at higher concentrations (100 μM and 1 mM), 200 mM ammonium acetate pH 7.0

stoichiometry N [1]: < 6
stoichiometry N [2]: 2
stoichiometry N [3]: < 5
Substance: Synaptobrevin-2, soluble cytosolic variant Syb([…]) (a stretch of the chain, sequence left out) (domain or fragment; other documents disagree on this pair)
